Source: ChEMBL document CHEMBL5236649

Target: Alpha-synuclein (Homo sapiens) (UniProt P37840)
Test: Inhibition of alpha-Synuclein (unknown origin) aggregation assessed as reduction in alpha-Syn fibrillation by measuring fluorescence intensity at 172.9 uM incubated for 30 days by ThT fluorescence assay
Details: time 30.0 day

CCCN(CCc1cc(O)c(CCN(CCC)[C@H]2CCc3c(O)cccc3C2)cc1O)[C@H]1CCc2c(O)cccc2C1
inhibition: Active

CCCN(CCc1cc(O)c(CCN(CCC)[C@H]2CCc3nc(N)sc3C2)cc1O)[C@H]1CCc2nc(N)sc2C1
inhibition: Active

Active and inactive are the calls of the source. The rule behind the calls is not given here.
